Assay: Plasma protein binding
Type: in vitro ADME
Details: equilibrium dialysis, mouse serum, 10 μM, 4 h, 37 °C

Work on 7-amino-4-methylcoumarin yielded a serum protein binding of 44%.

From article PMC8873552 (Chemical Science, 2021)
